Assay results as given in patent US12286404B2, “Solid state forms of Mitapivat and process for preparation thereof” (TEVA PHARMACEUTICALS INTERNATIONAL GMBH, priority 2020, dated 2025).

Key:
[1] = at different pH's
[2] = Storage stability under humidity/temperature conditions; assay type: physicochemical; details: for at least one month
[3] = Stability under stress conditions (heating, grinding, high pressure); assay type: physicochemical; details: grinding and high pressure
[4] = Hygroscopicity; assay type: physicochemical

Row | solubility compared to Mitapivat hemisulfate [1] | stability under regular conditions ([2]; 60% RH at RT) | stability under accelerated conditions ([2]; 75% RH at 40° C.) | stability under stress conditions [3] | hygroscopicity [4] | Substance
1 | improved solubility |  |  |  |  | Mitapivat hemisulfate:ascorbic acid
2 | improved solubility | polymorphically and chemically stable | polymorphically and chemically stable | stable | non-hygroscopic | Mitapivat hemisulfate:adipic acid
